Experiment [1] relates to secretion levels of IL-6 in PBMC cells. Description: Inhibition of LPS+IL-1β-induced IL-6 secretion in PBMC (IL-6 ELISA). The note with it: human PBMC, 24 h compound pre-incubation, 20 h stimulation. (An ELISA detects its analyte on a solid surface through an enzyme-linked reagent.)
Another experiment has as its target IRAK4 protein (Homo sapiens, UniProt Q9NWZ3). Description: IRAK4 protein degradation in THP1 cells (Western blot). The format is cell-based. To be noted: 24 h. (In general: Immunoblotting shows a protein as a band on a membrane.)

Protein sequences, listed by entry. Tags and fused reporters are not part of them.
UniProt Q9NWZ3, whole entry: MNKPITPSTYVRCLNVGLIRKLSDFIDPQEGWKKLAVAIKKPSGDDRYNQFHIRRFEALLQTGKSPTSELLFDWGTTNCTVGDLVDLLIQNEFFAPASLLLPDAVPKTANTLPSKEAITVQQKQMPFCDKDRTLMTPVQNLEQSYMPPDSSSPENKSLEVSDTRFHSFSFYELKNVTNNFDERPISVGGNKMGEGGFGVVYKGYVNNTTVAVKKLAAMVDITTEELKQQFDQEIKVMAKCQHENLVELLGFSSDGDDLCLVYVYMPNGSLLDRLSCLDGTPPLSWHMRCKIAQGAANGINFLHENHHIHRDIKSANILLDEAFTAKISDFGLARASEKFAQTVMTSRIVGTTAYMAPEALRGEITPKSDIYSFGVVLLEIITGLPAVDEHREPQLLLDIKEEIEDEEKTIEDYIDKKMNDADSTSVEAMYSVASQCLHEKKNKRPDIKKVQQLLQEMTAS

Usually IC50 stands for the point on the concentration scale where inhibition reaches its midpoint. The DC50 is the concentration giving 50% degradation. A lower DC50 goes with a more potent degrader. In turn, `Cc1nn(C2CCC(=O)NC2=O)c2cccc(N3CCN(C[C@H]4CC[C@H](n5cc6cc(NC(=O)c7cnn8cccnc78)c(N(C)C)cc6n5)CC4)CC3)c12` (relative stereo) yielded an IC50 in experiment [1] of 34.2 nM. For the same compound, the DC50 at IRAK4 protein is under 0.1 nM.

The values are drawn from US20260146044A1, “AROMATIC COMPOUND, PHARMACEUTICAL COMPOSITION CONTAINING SAME, AND USE THEREOF” (Increland, priority 2023, published 2026).
